Article PMC4964800 (Bioorganic & medicinal chemistry letters, 2016)

Tested on: STAT1
Assay: IFN-γ-induced STAT1 pathway activation assay
Assay type: cell-based
Conditions: read-out: STAT1 IC50

IC50: 29.5 µM
SMILES: COc1ccc(C2=Nn3c(nnc3-c3cc(-c4ccc(Cl)cc4)n[nH]3)SC2C)cc1 (stereo not shown) [Compound 22]
